Results: article PMC6988089 (Journal of the American Chemical Society, 2019)

Protein sequences, listed by entry. Tags and fused reporters are not part of them. Lines headed by an entry give the natural chain unless they say otherwise; changes in a name come on top.
UniProt Q13185: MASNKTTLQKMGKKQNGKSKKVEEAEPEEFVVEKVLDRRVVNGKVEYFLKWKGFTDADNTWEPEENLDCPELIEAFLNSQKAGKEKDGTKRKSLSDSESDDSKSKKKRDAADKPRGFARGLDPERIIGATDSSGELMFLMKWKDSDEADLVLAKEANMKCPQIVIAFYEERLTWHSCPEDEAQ

Biological target: wild-type CBX3 (human, UniProt Q13185 1-183)
Assay: fluorescence polarisation

B1: TAMRA-labeled H3K9me3 peptide (peptide)
chain: ARTKQTARKSTGGKA
modifications: trimethyl-lysine at 9; tetramethylrhodamine (TAMRA) label, position not stated
  Kd: 12.2 ± 0.2 µM
